The chains behind the UniProt entries cited, without tags or fusion partners. Residues count along the entry.
UniProt Q9UNA0, 262-930 limits assumed: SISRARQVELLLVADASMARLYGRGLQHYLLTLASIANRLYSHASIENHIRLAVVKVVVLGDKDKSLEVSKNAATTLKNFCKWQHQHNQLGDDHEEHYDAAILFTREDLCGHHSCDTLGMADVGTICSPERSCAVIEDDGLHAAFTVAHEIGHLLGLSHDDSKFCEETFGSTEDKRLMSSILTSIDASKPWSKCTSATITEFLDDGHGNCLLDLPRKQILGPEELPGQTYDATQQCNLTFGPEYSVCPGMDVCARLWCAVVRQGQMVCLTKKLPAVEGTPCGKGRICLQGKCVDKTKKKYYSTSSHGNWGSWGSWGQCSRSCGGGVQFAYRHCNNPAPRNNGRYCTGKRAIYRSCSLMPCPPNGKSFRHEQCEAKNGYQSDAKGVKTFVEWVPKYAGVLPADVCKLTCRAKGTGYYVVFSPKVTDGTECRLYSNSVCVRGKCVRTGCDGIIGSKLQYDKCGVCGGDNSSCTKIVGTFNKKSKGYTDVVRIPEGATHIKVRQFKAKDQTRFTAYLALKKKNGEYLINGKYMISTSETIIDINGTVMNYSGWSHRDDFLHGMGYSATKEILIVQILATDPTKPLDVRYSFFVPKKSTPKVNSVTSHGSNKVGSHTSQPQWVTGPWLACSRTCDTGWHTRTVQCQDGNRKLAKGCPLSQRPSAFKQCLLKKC
UniProt O75173, 213-837 limits assumed: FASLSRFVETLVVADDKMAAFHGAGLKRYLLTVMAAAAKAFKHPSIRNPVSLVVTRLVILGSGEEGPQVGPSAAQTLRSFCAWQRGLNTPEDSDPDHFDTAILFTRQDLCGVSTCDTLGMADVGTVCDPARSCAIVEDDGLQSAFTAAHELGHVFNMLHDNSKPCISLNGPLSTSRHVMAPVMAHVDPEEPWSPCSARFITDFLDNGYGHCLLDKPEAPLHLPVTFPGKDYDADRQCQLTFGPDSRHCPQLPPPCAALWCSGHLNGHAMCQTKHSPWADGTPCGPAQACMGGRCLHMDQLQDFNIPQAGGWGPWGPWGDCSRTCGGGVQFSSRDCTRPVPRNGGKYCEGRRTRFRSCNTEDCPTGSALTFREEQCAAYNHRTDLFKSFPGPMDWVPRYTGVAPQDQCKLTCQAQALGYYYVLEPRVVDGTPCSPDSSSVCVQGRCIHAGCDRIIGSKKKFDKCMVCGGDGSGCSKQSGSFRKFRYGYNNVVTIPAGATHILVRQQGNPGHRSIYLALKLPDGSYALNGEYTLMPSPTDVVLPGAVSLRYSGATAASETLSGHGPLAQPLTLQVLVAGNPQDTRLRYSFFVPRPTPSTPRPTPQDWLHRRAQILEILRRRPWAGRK

In US20250313558A1, “IMIDAZOLIDINE DERIVATIVE OR PHARMACEUTICALLY ACCEPTABLE SALT THEREOF, AND USE THEREOF” (CELLUS INC., priority 2023, published 2025):

Experiments:
[1] = target: ADAMTS5 (Homo sapiens, UniProt Q9UNA0); assay: FRET assay, inhibition of ADAMTS5; conditions: for IC50: read-out: IC50, inhibition of ADAMTS5
[2] = target: ADAMTS4 (Homo sapiens, UniProt O75173); assay: FRET assay, inhibition of ADAMTS4
Protocol: The control compound GLPG-1972 and four effective compounds (CLS-S210 (Formula 2), CLS-S282 (Formula 3), CLS-S213 (Formula 4), and CLS-S214 (Formula 5)) were treated with ADAMTS5, ADAMTS4, ADAM10, and ADAM17 proteins to perform Fluorescence Resonance Energy Transfer (FRET) evaluation. FRET assay is a method to detect and quantify the fluorescent signal generated when ADAM/ADAMTS proteins […] specific peptides.

[3] = test system: mouse cartilage explant (femoral heads); assay: Ex vivo mouse cartilage explant, GAG release by DMMB assay; conditions: femoral heads of 5-day-old mouse, IL-1β, cultured 72 hours
Protocol: Femoral heads of 5-day-old mouse were obtained and treated with each of ADAMTS5 targeting substances while simultaneously treating with IL-1β, and cultured for 72 hours. After culture, the culture medium was collected to confirm GAG release, and the cartilage tissue was fixed, made into a paraffin block, and sectioned using a microtome.
DMMB assay was performed to analyze the amount of cartilage matrix released by decomposition in the culture medium, and as a result, the amount of GAG measured in CLS-S210 and CLS-S282 among ADAMTS5 targeting effective substances was low, and it was confirmed that the compound has an excellent effect in protecting cartilage by inhibiting cartilage matrix decomposition (FIG. 9).

[4] = test system: mouse model of osteoarthritis; assay: Mouse model of osteoarthritis (DMM surgery), Safranin-O staining, OARSI grade; conditions: DMM surgery mice, injected into the knee
Protocol: In order to observe the effect of each compound on cartilage degeneration in vivo, Safranin-O staining was performed and the OARSI grade, which can evaluate cartilage damage caused by osteoarthritis, was quantified.
The degree of cartilage damage was evaluated by giving a score from 0 to 6 points. As a result of confirming the cartilage protection effect of ADAMTS5 targeting effective substances in mice of osteoarthritis induced through DMM surgery, in the case of osteoarthritis mice treated with vehicle, surface erosion and cartilage loss were clearly observed as characteristics, whereas in ADAMTS5 targeting compounds, cartilage damage was reduced, and a significant reduction was observed particularly in CLS-S210 and CLS-S282 compounds (FIG. 10).

[5] = test system: mouse model of osteoarthritis; assay: Mouse model of osteoarthritis, pain sensitization experiment; conditions: DMM surgery mice, injected into the knee

| inhibition ability against ADAMTS5 (in words) [1] | IC50 [1] | inhibition ability against ADAMTS4 (in words) [2] | SMILES | amount of GAG released into culture medium (DMMB assay) [3] | cartilage damage (OARSI grade, score 0 to 6) [4] | pain (pain sensitization experiment) [5] |
| --- | --- | --- | --- | --- | --- | --- |
| excellent inhibition ability | 0.059 µM | excellent inhibition ability | O=C1NC(=O)C(CCC(=O)N2CCCc3c2[nH]c2ccccc32)(C2CC2)N1 (stereo not drawn) | low | significant reduction | significant pain reduction |
| excellent inhibition ability | 0.042 µM | excellent inhibition ability | O=C1NC(=O)C(CNC(=O)N2CCCc3c2[nH]c2ccccc32)(C2CC2)N1 (stereo not drawn) | low | significant reduction | significant pain reduction |
